Here are results for one substance from patent US20090143469A1, “SALTS OF NATEGLINIDE” (priority 2002, published 2009).

A short description of the data set: Solubility in water of nateglinide salts. It is filed as physicochemical.

Consider Lysine, for which the “Solubility Water” value turned out to be 7.1 mg/mL and the “water solubility compared with other forms (in words)” value is given as “comparable to that of the N-methyl-D-glucamine salt of nateglinide”.
